These results are taken from PubChem BioAssay AID602332 (National Center for Advancing Translational Sciences (NCATS), 2012).

The list shows a part of the results, in another mix than the full data. Some structures show a salt or complex split into parts, the way the source records it. Active and inactive are the calls of the source. The call rests on the fitted dose curve; in most records, active means well fitted activation curve with a large enough effect; inconclusive means small, poorly fitted or top-dose-only effect; inactive means no such curve, though single readings can be large or run the other way.

This experiment is described as follows: qHTS for Inducers of the Endoplasmic Reticulum Stress Response (ERSR) in Human Glioma: qHTS. Further: % of control where 0% means no effect; nearly all actives have a fitted effect of over 35% in size. The settings on record: U87-MG GRP78 promoter luciferase reporter, 16 h; stronger effect = higher value. A general note: In qHTS, concentration-response curves come from the screen itself.
For `O=c1[nH]c2ccccc2n1C1CCN(C(c2ccccc2)c2nnnn2C2CCCCC2)CC1` (stereo not drawn), the activation is inactive: -3.91%.

Regarding `O=c1[nH]c2ccccc2n1C1CCN(C(c2cccc3ccccc23)c2nnnn2C2CCCC2)CC1` (stereo not drawn), the activation is inactive: -2.51%. The figure for `CCOC(=O)N1CCC(Nc2cccc(C)c2)CC1` is inactive: -0.0685%. `COc1cc(C(=O)NCC2(N(C)C)CCCCC2)ccc1OC(F)F`: the activation is inactive: -9.8%. On to `CCOc1ccc(C)cc1CN(CCCl)CCCl`, for which the activation is inactive: -0.35%.

`O=C1CCN(Cc2ccccc2)CC1`: the activation is inactive: -2.13%. For `O=C(NCC1(N2CCOCC2)CCCCC1)c1ccc(Cl)cc1`, the activation was inactive: -5.03%. In the case of `CC(C)(C)n1nnnc1C(c1ccccc1)N1CCC(n2c(=O)[nH]c3ccccc32)CC1` (stereo not drawn), the activation is inactive: -2.71%. The figure for `CCOC(=O)N1CCC(Nc2ccc(F)cc2)CC1` is inactive: -2.85%; for `COc1ccc(NC2CCN(CCc3ccccc3)CC2)c(OC)c1` it is inactive: -3.37%.

Regarding `CCCCOc1ccc(C(=O)NCC2(N3CCOCC3)CCCCC2)cc1`, the activation was inactive: -1.92%. On to `CCCCn1nnnc1C(c1cc2ccccc2o1)N1CCC(n2c(=O)[nH]c3ccccc32)CC1` (stereo not drawn), for which the activation is inactive: -9.1%. Consider `O=P1(N(CCCl)CCCl)SCCCS1`, for which the activation was inactive: -2.87%. As for `O=C(NCC1(N2CCCCC2)CCCCC1)c1ccc(F)cc1`, the figure is inactive: -0.995%; as for `COc1ccccc1C(=O)NCC1(N2CCOCC2)CCCCC1`, inactive: -2.55%; as for `O=C(NCC1(N2CCOCC2)CCCCC1)c1cc2ccccc2o1`, inactive: -0.188%.

Take `Cc1cc(C)cc(N(C(=O)c2ccccc2)C2CCN(C(=O)OC(C)(C)C)CC2)c1`: the activation is inactive: -3.25%. As for `O=C(NCC1(N2CCCCC2)CCCCC1)c1ccc(Cl)nc1`, the activation is inactive: -0.912%. With `O=c1[nH]c2ccccc2n1C1CCN(C(c2ccccc2OC(F)(F)F)c2nnnn2C2CCCCC2)CC1` (stereo not drawn), the activation is inactive: -3.99%.

Regarding `CCCCn1nnnc1C(c1ccc(OC)cc1)N1CCC(n2c(=O)[nH]c3ccccc32)CC1` (stereo not drawn), the activation is inactive: -1.69%. Consider `CCOC(=O)N1CCC(Nc2ccc(OC)cc2)CC1`, for which the activation is inactive: 0.542%. Consider `COc1ccc(Cl)cc1C(=O)NCC1(N2CCOCC2)CCCCC1`, for which the activation is inactive: -3.31%. The figure for `O=C1C(O)=C([N+](=O)[O-])C(=O)C(O)=C1[N+](=O)[O-]` is inactive: -5.27%. As for `O=C(NCC1(N2CCCCC2)CCCCC1)c1ccc(Cl)s1`, the activation was inactive: -3.72%. As to `N#CC1(Nc2ccccc2)CCN(Cc2ccccc2)CC1`, the activation was inactive: -3.65%.

On to `O=c1[nH]c2ccccc2n1C1CCN(C(c2cc3ccccc3o2)c2nnnn2C2CCCCC2)CC1` (stereo not drawn), for which the activation was inactive: -3.83%. On to `O=C(OC1CN2CCC1CC2)C1c2ccccc2Oc2ccccc21` (stereo not drawn), for which the activation is inactive: -1.17%. As for `O=C(NCC1(N2CCCCC2)CCCCC1)c1cccs1`, the activation is inactive: -5.15%. In the case of `CCCCn1nnnc1C(CC)N1CCC(n2c(=O)[nH]c3ccccc32)CC1` (stereo not drawn), the activation is inactive: -3.68%. As to `CCCCn1nnnc1C(c1cccs1)N1CCC(n2c(=O)[nH]c3ccccc32)CC1` (stereo not drawn), the activation is inactive: -2.13%. With `O=C(NCC1(N2CCCCC2)CCCCC1)c1ccc(=O)[nH]c1`, the activation is inactive: -3.42%. For the compound `CC(C)(C)OC(=O)N1CCC(N(C(=O)c2ccccc2)c2ccc(F)cc2)CC1`, the activation is inactive: -2.76%. On to `COc1ccc(C(=O)NCC2(N3CCCCC3)CCCCC2)c(OC)c1OC`, for which the activation was inactive: -3.51%.

Take `CCC(c1nnnn1C1CCCC1)N1CCC(n2c(=O)[nH]c3ccccc32)CC1` (stereo not drawn): the activation was inactive: -2.73%.

For `COc1ccc(C(=O)NCC2(N3CCCCC3)CCCCC2)cc1`, the activation is inactive: -2.47%. As for `Cc1cccc(NC2(C#N)CCN(Cc3ccccc3)CC2)c1`, the activation is inactive: -3.52%.

As for `CSc1ccccc1C(=O)NCC1(N2CCCCC2)CCCCC1`, the activation was inactive: -4.43%. The figure for `CN1CCC(Nc2cccc(F)c2)CC1` is inactive: -2.12%; for `COc1ccc2c(c1O)-c1c(O)c(OC)cc3c1[C@H](C2)[N+](C)(C)CC3.O=[N+]([O-])c1cc([N+](=O)[O-])c([O-])c([N+](=O)[O-])c1[O-]` it is inactive: -1.7%; for `O=C(NCC1(N2CCCCC2)CCCCC1)c1cncc(Br)c1` it is inactive: -1.01%. Regarding `O=C(OC1CN2CCC1CC2)c1ccc([N+](=O)[O-])cc1` (stereo not drawn), the activation was inactive: -0.912%. With `O=C(NCC1(N2CCOCC2)CCCCC1)c1ccccc1Br`, the activation was inactive: 0.591%. The figure for `CCCOc1ccc(C(=O)NCC2(N(C)C)CCCCC2)cc1OC` is inactive: -0.136%; for `CCCCOc1ccccc1C(=O)NCC1(N2CCOCC2)CCCCC1` it is inactive: -3.75%. In the case of `Cc1ccc(C(=O)NCC2(N(C)C)CCCCC2)o1`, the activation was inactive: -2.53%. As for `COc1ccc(C(c2nnnn2C2CCCC2)N2CCC(n3c(=O)[nH]c4ccccc43)CC2)cc1` (stereo not drawn), the activation is inactive: -2.65%. As to `O=[N+]([O-])c1cc([N+](=O)[O-])c(Nc2ccc(Cl)cc2)c([N+](=O)[O-])c1`, the activation is inactive: -9.94%. `CN(C)c1cccc(C(=O)NCC2(N3CCCCC3)CCCCC2)c1`: the activation is inactive: -2.88%.

As to `O=[N+]([O-])c1cc([N+](=O)[O-])c(OC2CCCCC2O)c([N+](=O)[O-])c1` (stereo not drawn), the activation is inactive: -3.67%. As for `COc1ccc(CN(CCCl)CCCl)cc1Cl`, the figure is inactive: -4.14%; as for `CCCCn1nnnc1C(c1ccccc1OC(F)(F)F)N1CCC(n2c(=O)[nH]c3ccccc32)CC1` (stereo not drawn), inactive: -6.99%.

On to `CC(C)c1ccc(NC2CCN(C(=O)OC(C)(C)C)CC2)cc1`, for which the activation is inactive: 7.1%. With `CCCCn1nnnc1C(c1ccnc2ccccc12)N1CCC(n2c(=O)[nH]c3ccccc32)CC1` (stereo not drawn), the activation was inactive: -2.98%.

For the compound `O=C(NCC1(N2CCOCC2)CCCCC1)c1cc(F)c(F)cc1Cl`, the activation is inactive: -2.6%.

As for `CCC(c1nnnn1C(C)(C)C)N1CCC(n2c(=O)[nH]c3ccccc32)CC1` (stereo not drawn), the activation is inactive: -3.26%.

Consider `COc1cc(OC)c(C(=O)NCC2(N(C)C)CCCCC2)cc1OC`, for which the activation is inactive: 2.04%.

Consider `O=C(NCC1(N2CCCCC2)CCCCC1)c1cccc(C(F)(F)F)c1`, for which the activation was inactive: -3.65%. Consider `CCCOc1cccc(C(=O)NCC2(N3CCOCC3)CCCCC2)c1`, for which the activation is inactive: -5.15%.
